## Ab-14 light chain CDR variants: yeast mating affinities

Target: peptide PDVDLGDISGINAS, taken from heptad repeat 2 (HR2) of SARS-CoV-2 spike.

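This is the validation round: designs drawn from the data on random variants, tested in the same kind of assay. Several design methods are mixed in this list. AlphaSeq pools MATa yeast showing the antibodies with MATalpha yeast showing the peptide. Pairs that bind mate more often; barcode pairs of the diploids are counted by sequencing. Read counts were normalised to the haploid input and turned into Kd by a linear fit to BCL2-family pairs of known affinity, for each replicate. There are six technical replicates.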

Each scFv is VH, a 15-residue (Gly4Ser)3 linker, VL, as in the parent Ab-14, and differs from it in the CDRs of the light chain only.
VH: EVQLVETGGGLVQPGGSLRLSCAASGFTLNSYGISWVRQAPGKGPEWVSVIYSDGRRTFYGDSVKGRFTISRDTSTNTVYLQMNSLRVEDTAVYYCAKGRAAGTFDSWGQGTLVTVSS
VL: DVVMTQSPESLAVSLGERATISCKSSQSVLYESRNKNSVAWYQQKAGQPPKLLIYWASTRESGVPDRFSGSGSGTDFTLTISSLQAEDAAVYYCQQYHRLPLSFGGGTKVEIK

Each variant is given by its three light chain CDRs, as the data file delimits them; those of the parent are KSSQSVLYESRNKNSVA, WASTRES, QQYHRLPLS.
Variants here have more than six changes.
Affinities are written as log10 Kd with Kd in nM; a lower number is a better binder.
Replicates are averaged; those with no signal do not enter the mean.
"nd" means that the variant was in the library but no mating with the target was seen in any replicate; the authors take this as a sign of poor binding, and no number exists.
Empty control strains, which show no peptide, gave a signal in 4% of pairings with all light chain designs; the median was 2.64 and 95% of these signals were weaker than 1.59. No background was subtracted. For each scFv, signals with the empty controls are counted beside the result.
In the paper, a design with two or fewer of six values counts as a poor binder.
The range of this assay differs from that of the first round, and the authors advise against merging the two.

CDR-L1	CDR-L2	CDR-L3	log10 Kd (nM), mean	detected	signal with controls
HVHSLMAIWQEIQNNVA	DAQNRNA	QQYFRLPLA	-0.17	6 of 6	1 of 18
HMSMITLQGMRHRNSVA	QMTTRVN	QQYDHLPLS	2.08	5 of 6	0 of 18
KLSGSMLYEQRMKNSVA	QASVRMS	QQYHRLPLS	0.21	6 of 6	0 of 18
NMTLQVRNGERNKYNIA	AEVKRVY	QQYQRLPLM	1.98	4 of 6	1 of 18
KLQFSSGMSQRNKNSVA	SASTRCS	QQYHRLPLS	0.86	6 of 6	3 of 18
KISQSALMEPRNSNSVA	NASTRQM	QQYHRLPLS	-0.24	6 of 6	1 of 18
KMMQSQLYEDRNSNAVA	NASQRES	QQYHRLPLS	-0.10	6 of 6	1 of 18
KIGMTLNQLMHKKNNVA	DLVTREA	QQYHRLPLS	0.68	6 of 6	1 of 18
HISQMWMLESKNKNNVA	EESTRED	QSYFRLPLS	-0.01	6 of 6	0 of 18
KLNLREEWGTGQWQNIA	EREIAWE	QQYQSLPLS	0.76	6 of 6	1 of 18
MISQILNMGQFAINSVA	QASLRNE	QQYDRLPLE	0.78	6 of 6	2 of 18
NIYQAMHTLMQIRNNVA	DVTNRNA	QQYNRLPLS	0.51	6 of 6	1 of 18
KLRSVTGTEKVRGNNVA	EMETRER	QQYNRLPLS	0.17	6 of 6	1 of 18
HMSQVTMYGYWEKNSVA	QTSTREE	QQYDRLPLS	0.91	6 of 6	0 of 18
KLEPFEEYESRNKNSVA	SASTRES	QQYHRLPLS	-0.03	6 of 6	0 of 18
KVSQSAPYEDRNLNNVA	HASTRES	QQYHRLPLS	-0.35	6 of 6	1 of 18
MISGSVMSNSRLKNSVA	QTTTRES	QQYDRLPLS	0.61	6 of 6	1 of 18
ASDHTEGSGKNADANVA	GDEQRAP	QQYHHLPLS	1.25	6 of 6	0 of 18
KLGDMVHTLSRNKNSIA	DMRTRES	QQYMRLPLS	0.03	6 of 6	0 of 18
HMKDEPGFGPQTYSSVA	HAEIREP	QQYYRLPLM	0.43	6 of 6	0 of 18
RADAAPPIQGNNIDSVA	ENAIRLD	QQYARLPLS	1.09	6 of 6	1 of 18
KVSESAAFLSRNRNSVA	DNSTRGS	QQYHRLPLS	0.79	6 of 6	0 of 18
TISQLHNMGTFAINSVA	QAEIRNE	QQYDRLPLT	1.46	6 of 6	0 of 18
HLSQSVDLESMHKNSIA	DLMTRES	QQYHRLPLS	0.42	6 of 6	1 of 18
NIYQAMHTLSQMKDNVA	DVNERFN	QQYFRLPLS	0.07	6 of 6	0 of 18
KLSMTHQMESVNRNSVA	ELVTRMK	QQYNRLPLS	0.48	6 of 6	1 of 18
KLGATLNTEMTKKNNVA	DLVTREN	QQYHRLPLS	0.03	6 of 6	4 of 18
KISMLYNFAQTNKNSIA	EMTTRES	QHYHRLPLS	1.47	6 of 6	0 of 18
MISQLMNMGQFAINSVA	QASERSE	QQYDRLPLT	1.57	3 of 6	0 of 18
KVDQWVEYGSRNKNSVA	SASQRSS	QQYHRLPLS	0.13	6 of 6	1 of 18
KIQNFSQEYNKMWNNIA	DMTMKHT	QQYNRLPLE	0.15	6 of 6	3 of 18
TISQSAHMESHNKNSVA	DLNLRGS	QQYDRLPLS	0.79	6 of 6	0 of 18
QMTLSFGMWLNAAQSIA	DKSSVME	QQYAWLPLS	1.06	6 of 6	0 of 18
RVTIISDPYMENRNNIA	QTSLRAH	QQYQMLPLT	-0.20	6 of 6	0 of 18
KVSEFMRGLMKKQDSIA	DNETRNS	QQYDRLPLS	2.35	6 of 6	0 of 18
KLGSSTRFESSNKAAIA	DNSTRES	QQYHRLPLS	1.09	6 of 6	1 of 18
KLREVQHLETKQRNNVA	DNDTREY	QDYFRLPLS	3.11	1 of 6	1 of 18
KFHMGWEMGSRKVDNIA	EANLRFS	QQYNRLPLF	0.71	6 of 6	0 of 18
KFSYSVLYEDRNQNSVA	DASQREQ	QQYHRLPLS	0.39	6 of 6	1 of 18
KLGSMVLLEHGNKNSIA	QQSTREE	QQYDRLPLS	0.84	6 of 6	2 of 18
TLGGVTSYEMQNKNSVA	QMTTRES	QQYHRLPLS	0.35	6 of 6	0 of 18
KLSATYRYESQNKNSIA	EMTTREA	QCYHRLPLS	nd	0 of 6	0 of 18
MISQLMNMGQFAINSVA	QAEIRNA	QQYDRLPLI	nd	0 of 6	0 of 18
HMRHEFYGYDNYDKAVA	HANQRHN	QQYSRLPFS	0.73	6 of 6	0 of 18
ALTRQNLQNTDNLNAIA	EQNQTQE	QQYFRLPFA	1.69	6 of 6	2 of 18
HIGQSMLGENVKARSVA	HMNTRED	QQYDRLPLS	0.12	6 of 6	0 of 18
VFMGQWDGVTTTNSAVA	NVDERML	QQYNRLPLM	0.65	6 of 6	0 of 18
IVSQLMLWGKSAKNSIA	EAVTRLN	QQYDRLPLI	1.60	4 of 6	1 of 18

Picked from the list: the 4 lowest averages where every replicate gave a value.

CDR-L1	CDR-L2	CDR-L3	log10 Kd (nM), mean	detected	signal with controls
KVSQSAPYEDRNLNNVA	HASTRES	QQYHRLPLS	-0.35	6 of 6	1 of 18
KISQSALMEPRNSNSVA	NASTRQM	QQYHRLPLS	-0.24	6 of 6	1 of 18
RVTIISDPYMENRNNIA	QTSLRAH	QQYQMLPLT	-0.20	6 of 6	0 of 18
HVHSLMAIWQEIQNNVA	DAQNRNA	QQYFRLPLA	-0.17	6 of 6	1 of 18

Source: Li et al. 2023 (doi:10.1038/s41467-023-39022-2), MIT Lincoln Laboratory and A-Alpha Bio; data file from the FLAb repository.